Data published in ChEMBL document CHEMBL1130119, “2-Carbomethoxy-3-aryl-8-oxabicyclo[3.2.1]octanes: potent non-nitrogen inhibitors of monoamine transporters” (J Med Chem, 1997).

By UniProt entry, the sequences of proteins in these tests, tags left out.
UniProt P31645, whole entry: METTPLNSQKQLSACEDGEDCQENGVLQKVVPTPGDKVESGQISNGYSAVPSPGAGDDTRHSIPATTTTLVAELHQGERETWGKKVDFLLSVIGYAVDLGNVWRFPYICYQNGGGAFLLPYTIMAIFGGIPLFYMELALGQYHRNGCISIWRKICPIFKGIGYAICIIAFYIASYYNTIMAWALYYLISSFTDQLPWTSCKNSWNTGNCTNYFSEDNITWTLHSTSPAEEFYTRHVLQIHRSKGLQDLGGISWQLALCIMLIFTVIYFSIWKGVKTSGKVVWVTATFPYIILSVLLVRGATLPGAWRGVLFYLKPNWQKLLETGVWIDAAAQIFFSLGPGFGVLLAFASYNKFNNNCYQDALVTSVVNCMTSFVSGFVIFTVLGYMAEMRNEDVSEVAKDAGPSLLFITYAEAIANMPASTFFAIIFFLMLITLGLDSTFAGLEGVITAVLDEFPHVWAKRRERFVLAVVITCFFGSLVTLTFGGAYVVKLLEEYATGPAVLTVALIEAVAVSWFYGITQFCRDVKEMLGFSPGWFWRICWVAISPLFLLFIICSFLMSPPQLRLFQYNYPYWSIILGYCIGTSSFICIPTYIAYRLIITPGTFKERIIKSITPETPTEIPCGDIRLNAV

Biological target: Sodium-dependent serotonin transporter (Homo sapiens, UniProt P31645)
Test: Inhibition of [3H]citalopram binding to the serotonin transporter (5-HT) in monkey caudate-putamen.
Assay type: tissue-based, Cercopithecidae
Details: target entry is the homologue from another species

| Compound | IC50 |
| --- | --- |
| COC(=O)C1C(c2ccc(Cl)cc2)CC2CCC1N2C (stereo in doubt; 19c) | 998 nM |
| COC(=O)[C@@H]1C2CC[C@H](C[C@@H]1c1ccccc1)N2C (stereo in doubt; 18a) | 2000 nM |
